Literature values as cited in PMC2359721 (British Journal of Cancer, 2007).

System: A431, NIH-3T3-HER2, NCI-N87 and BT-474
Conditions: cell lines such as A431, NIH-3T3-HER2, NCI-N87, BT-474; ref Boehringer-Ingelheim, data on file; cited from earlier work

In the case of `CN(C)C/C=C/C(=O)Nc1cc2c(Nc3ccc(F)c(Cl)c3)ncnc2cc1O[C@H]1CCOC1` [BIBW 2992], the cellular proliferation is given as “inhibits”.
